Assay [1] is filed under the species Homo sapiens. Kind of assay: Selectivity ratio of Ki for recombinant human PDE2 to Ki for recombinant human PDE10A. The method in brief:
(§1)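 Recombinant human PDE enzymes (PDE1–11) were tested in a scintillation proximity assay with [³H]cAMP as substrate, measuring hydrolysis of cAMP to AMP. Ki values are means of at least two experiments. The ratio is the Ki for each off-target PDE divided by the PDE10A Ki.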

Chains of the proteins cited; added tags and fusions are not shown. Lines headed by an entry give the natural chain unless they say otherwise; changes in a name come on top.
UniProt Q9Y233: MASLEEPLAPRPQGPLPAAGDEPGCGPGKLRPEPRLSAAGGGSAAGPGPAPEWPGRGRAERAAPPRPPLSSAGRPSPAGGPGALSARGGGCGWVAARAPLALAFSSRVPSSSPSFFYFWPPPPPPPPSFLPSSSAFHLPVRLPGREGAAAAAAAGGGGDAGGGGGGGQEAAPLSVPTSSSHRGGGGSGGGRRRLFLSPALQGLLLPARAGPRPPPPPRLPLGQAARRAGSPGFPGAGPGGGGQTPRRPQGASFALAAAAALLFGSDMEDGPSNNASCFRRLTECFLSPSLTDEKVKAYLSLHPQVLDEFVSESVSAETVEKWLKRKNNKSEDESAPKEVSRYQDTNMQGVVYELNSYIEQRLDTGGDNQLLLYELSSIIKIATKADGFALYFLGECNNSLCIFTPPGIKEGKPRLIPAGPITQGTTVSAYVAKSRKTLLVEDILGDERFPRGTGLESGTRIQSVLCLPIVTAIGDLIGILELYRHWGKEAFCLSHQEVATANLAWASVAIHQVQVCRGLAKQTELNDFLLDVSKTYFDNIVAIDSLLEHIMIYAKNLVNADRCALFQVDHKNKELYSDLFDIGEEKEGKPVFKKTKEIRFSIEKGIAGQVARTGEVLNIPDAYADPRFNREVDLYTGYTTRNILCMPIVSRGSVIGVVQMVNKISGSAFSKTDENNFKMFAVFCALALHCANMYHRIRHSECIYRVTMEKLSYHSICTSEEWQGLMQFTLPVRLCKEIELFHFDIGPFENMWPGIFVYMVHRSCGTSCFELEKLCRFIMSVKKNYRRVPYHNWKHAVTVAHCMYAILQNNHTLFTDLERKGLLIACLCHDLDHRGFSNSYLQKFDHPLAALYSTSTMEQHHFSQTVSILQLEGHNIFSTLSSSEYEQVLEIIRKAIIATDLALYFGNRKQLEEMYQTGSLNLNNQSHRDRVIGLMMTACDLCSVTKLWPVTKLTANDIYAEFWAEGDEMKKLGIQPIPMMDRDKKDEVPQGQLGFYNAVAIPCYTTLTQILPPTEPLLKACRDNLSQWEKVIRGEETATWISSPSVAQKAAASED

The species entered for assay [2] is Homo sapiens. Description: Selectivity ratio of Ki for recombinant human PDE4 to Ki for recombinant human PDE10A. The essentials: as §1
For assay [3], the species on record is Homo sapiens. Kind of assay: Selectivity ratio of Ki for recombinant human PDE7 to Ki for recombinant human PDE10A. The method in brief:
as §1

The species named for assay [4] is Homo sapiens. Description: Selectivity ratio of Ki for recombinant human PDE1 to Ki for recombinant human PDE10A. The method in brief:
as §1

Assay [5] is filed under the species Homo sapiens. Description: Selectivity ratio of Ki for recombinant human PDE11 to Ki for recombinant human PDE10A. The essentials: as §1
For assay [6], the species on record is Homo sapiens. Description: Selectivity ratio of Ki for recombinant human PDE8 to Ki for recombinant human PDE10A. The method in brief: as §1
The species named for assay [7] is Homo sapiens. Kind of assay: Selectivity ratio of Ki for recombinant human PDE5A to Ki for recombinant human PDE10A. The essentials:
as §1

Assay [8] is filed under the species Homo sapiens. Description: Selectivity ratio of Ki for recombinant human PDE6 to Ki for recombinant human PDE10A. The method in brief: as §1
For assay [9], the target named is cAMP and cAMP-inhibited cGMP 3',5'-cyclic phosphodiesterase 10A (Homo sapiens, UniProt Q9Y233). Kind of assay: Inhibition of recombinant human PDE10A using [3H]cAMP as substrate by scintillation proximity assay. The essentials: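 Scintillation proximity assay with [³H]cAMP as substrate, measuring hydrolysis of cAMP to AMP by recombinant human PDEs 1–11. Ki values are means of at least two experiments.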
On the technique in general: SPA uses beads or plates that emit light when radiolabelled molecules are held near them.

For assay [10], the species on record is Homo sapiens. Kind of assay: Selectivity ratio of Ki for recombinant human PDE9 to Ki for recombinant human PDE10A. The method in brief: as §1
The species named for assay [11] is Homo sapiens. Description: Selectivity ratio of Ki for recombinant human PDE3 to Ki for recombinant human PDE10A. The method in brief:
as §1

Molecules are shown by their SMILES.

`COc1cc(C)c2nc3[nH]nc(C)c3c(N3CCNCC3)c2c1`: the Ratio Ki in the assay filed under Homo sapiens [1], in the assay listed under Homo sapiens [2], in the assay filed under Homo sapiens [3], in the assay filed under Homo sapiens [4], in the assay listed under Homo sapiens [5] and in the assay filed under Homo sapiens [6] was over 70 throughout. Further, the Ratio Ki in the assay filed under Homo sapiens [7], in the assay listed under Homo sapiens [8], in the assay listed under Homo sapiens [10] and in the assay listed under Homo sapiens [11] was over 70 each time. Moreover, the IC50 – broadly, the concentration that gives 50% inhibition – in assay [9] was 858 nM. In assay [9], the Ki (in general, the dissociation constant of the complex between target and ligand, obtained from inhibition or displacement) amounted to 11 nM.

These data come from ChEMBL document CHEMBL1938329, “The discovery of potent, selective, and orally active pyrazoloquinolines as PDE10A inhibitors for the treatment of Schizophrenia” (Bioorg Med Chem Lett, 2012).
